Experimental data: US8574578B2, “Antibodies against PDGFRα to inhibit tumor growth” (ImClone LLC, priority 2006, dated 2013)

Tested on: LuCaP 35V xenograft
Assay: LuCaP 35V subcutaneous xenograft tumor growth
Conditions: four-week ip treatment; A12 alone 40 μg/kg as printed; docetaxel 10 mg/kg; docetaxel 10 mg/kg + A12

Substance: IMC-A12: human IgG1 anti-IGF-IR antibody; heavy chain variable domain SEQ ID NO:41, light chain variable domain SEQ ID NO:51
- tumor growth rate during treatment: 192.7±35.6 mm^3/week
